Ab-14 light chain CDR variants: yeast mating affinities

Source: Li et al. 2023 (doi:10.1038/s41467-023-39022-2), MIT Lincoln Laboratory and A-Alpha Bio; data file from the FLAb repository.

Target: peptide PDVDLGDISGINAS, taken from heptad repeat 2 (HR2) of SARS-CoV-2 spike.

Parent scFv Ab-14: VH joined to VL by three GGGGS repeats. Changes lie in the light chain CDRs alone.
VH: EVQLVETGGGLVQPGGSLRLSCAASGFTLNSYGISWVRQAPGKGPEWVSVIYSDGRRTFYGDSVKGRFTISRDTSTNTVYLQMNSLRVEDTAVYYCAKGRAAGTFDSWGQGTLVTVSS
VL: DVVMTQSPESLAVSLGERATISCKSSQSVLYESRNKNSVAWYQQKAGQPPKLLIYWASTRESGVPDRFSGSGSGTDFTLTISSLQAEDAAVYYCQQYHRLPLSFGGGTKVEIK

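This is the validation round: designs drawn from the data on random variants, tested in the same kind of assay. Group labels follow the data file (Ctrl: baseline library sampled from a position-specific scoring matrix, with some repeated check sequences; En: ensemble of fine-tuned language models; GP: Gaussian process model; HC: hill climbing; Gen: genetic algorithm; Gibbs: Gibbs sampling; a sequence that several methods proposed may carry one label only). Affinity was read by AlphaSeq, a pooled yeast mating assay with surface-displayed partners. The frequency of each diploid, read from paired DNA barcodes, reflects how well the two displayed proteins bind. Scores were corrected for input abundance and mapped to Kd with protein pairs of known affinity run in the same pool. There are six technical replicates.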

Variants are written as CDR1, CDR2 and CDR3 of the light chain (limits as in the source). Parent: KSSQSVLYESRNKNSVA, WASTRES, QQYHRLPLS.
The Kd shown is the geometric mean over detected replicates; a lower Kd is a better binder.
An entry "nd" has no value in the source: the pair was not observed among the diploids in any replicate. This suggests poor binding but is not conclusive.
The range of this assay differs from that of the first round, and the authors advise against merging the two.
A sequence that the file lists under several names has all its replicates pooled.
Empty control strains, which show no peptide, gave a signal in 4% of pairings with all light chain designs; the median was 430 nM and 95% of these signals were weaker than 38 nM. No background was subtracted.
The authors' rule: three or more of the six replicates give a measured affinity, fewer mean a poor binder.

| CDR-L1 | CDR-L2 | CDR-L3 | group | apparent Kd | seen in |
|---|---|---|---|---|---|
| KLSQSVLYESRNKNSVA | QASTREM | QQYHRLPLS | GP_Gen | 970 pM | 6/6 |
| KMAQGWEYESRNKNSVA | NASVREE | QQYHRLPLS | GP_Gibbs | 6.9 nM | 6/6 |
| KLSQSDLYESRNKNSVA | NASTRES | QDYHRLPLS | GP_Gen | 490 pM | 6/6 |
| NLGGEDAQDTRGMAAVA | DVSEVGE | QHYNRLPLS | En_Gibbs | 59 nM | 5/6 |
| KVSWSVLYESGTKNSVA | NASVRES | QQYHRLPLS | GP_HC | 3.5 nM | 6/6 |
| KLRMSTAYLMENKNSVA | ELTTRGN | QQYFRLPLS | En_HC | 7.0 nM | 6/6 |
| KFSQMSNSMSVSKSAVA | EMSTRPE | QQYNRLPLA | En_Gen | 700 pM | 6/6 |
| KLSMLMDTTQKNHNSVA | HVQTRQD | QQYNHLPLS | En_Gen | 4.5 nM | 6/6 |
| KVQQSGGMLSRNKNSVA | HASTRES | QQYHRLPLS | GP_Gibbs | 5.2 nM | 6/6 |
| KLSQQDWYEQRNKNSVA | QASVREQ | QQYHRLPLS | GP_Gibbs | 310 pM | 6/6 |
| KFSQSELYESRNKNSVA | NASQRCS | QQYHRLPLS | GP_Gen | 660 pM | 6/6 |
| NLSQSVLYESRNKNSVA | NASTRES | QQYHRLPLS | GP_Gen | 2.0 nM | 6/6 |
| KSSISYLYESENKNSVA | EASQRES | QQYHRLPLS | GP_HC | 4.9 nM | 6/6 |
| TISDLIMVASRNRNSVA | DESARPD | QQYHRLPLS | En_HC | 660 pM | 6/6 |
| KSSQSVLYEKQHMNSVA | WASTRES | QQYHRLPLS | Ctrl | 100 nM | 5/6 |
| KISKSVLFESRNKNSVA | NASTRES | QQYHRLPLS | GP_HC | 12 nM | 6/6 |
| KVSQSRLYESRNKNSVA | NASQRES | QQYHRLPLS | GP_Gen | 2.0 nM | 6/6 |
| SLEPFEQQIMKDLNNIA | NTQVRAN | QQYMRLPFM | En_Gibbs | 780 pM | 6/6 |
| KSEQGVDDLERNDNSVA | WASTRES | QQYHRLPLS | GP_Gibbs | 68 nM | 6/6 |
| KVSQSYLGESRNMNSVA | NASTREQ | QQYHRLPLS | GP_Gibbs | 1.1 nM | 6/6 |
| KVSQSVPYESRNKNSVA | NASTRCS | QQYHRLPLS | GP_Gen | 1.8 nM | 6/6 |
| KLVQSVLYESRNKNSVA | NASTRMS | QQYHRLPLS | GP_Gen | 2.1 nM | 6/6 |
| HISQMVMMGSCNKNNVA | QVSTREE | QQYHRLPLS | En_HC | 8.0 nM | 6/6 |
| KLSGLMASSKFAKNSVA | ENNTRED | QQYERLPLS | En_Gen | 380 nM | 5/6 |
| QLYAVQDMTSKNKNSVA | EQSTRVN | QQYHRLPLS | En_HC | nd | 0/6 |
| KVQQSELGGSRNKWSVA | EASTRED | QQYHRLPLS | GP_Gibbs | 3.6 nM | 6/6 |
| MISEMMHMIGAKKNSIA | DLVMRAN | QQYHRLPLS | En_Gen | 8.5 nM | 6/6 |
| SLMQVGGYESNNKNSIA | DLRTREH | QQYHRLPLS | En_HC | 6.2 nM | 6/6 |
| SISMSMAFLSRNKNSVA | ENSTREA | QQYDRLPLL | En_HC | 23 nM | 6/6 |
| KQSCSVLQESRNKNSVA | DASTRES | QQYHRLPLS | GP_HC | 850 pM | 6/6 |
| KVSQSVLYESRNKNSVA | NASTRES | QQYHRLPLY | GP_Gen | 510 pM | 6/6 |
| TVSQVHEMLSRNKNSVA | DMNTRED | QQYDRLPLS | En_HC | 1.4 nM | 6/6 |
| KLQQSEGYESRNKNSVA | EASTRES | QQYHRLPLS | GP_Gen | 690 pM | 6/6 |
| TISMSMNWLTRNKNNIA | EESTRED | QQYDRLPLS | En_HC | 13 nM | 5/6 |
| HITYGMMLMGRHSKSIA | QAEERAK | QQYDRLPLI | En_Gen | 28 nM | 5/6 |
| KLSQSSLYESRMKNSVA | NASTRES | QQYHRLPLS | GP_Gen | 2.6 nM | 6/6 |
| MITAAPNAYGGNRSNIA | DKEISVN | QQYHHLPLS | En_Gibbs | 15 nM | 6/6 |
| KINERLRSGENIQHSIA | NATEIVH | QQYHNLPLG | En_Gibbs | 38 nM | 6/6 |
| KSSQSVLYESRNKNSVA | WASTRES | QQYHRLPLM | Ctrl | 350 nM | 1/6 |
| KMSESELYEDRNQNSVA | SASQRLS | QQYHRLPLS | GP_Gibbs | 1.9 nM | 6/6 |
| KMSQSVLMESRNKNSVA | DASLRES | QQYHRLPLS | GP_HC | 630 pM | 6/6 |
| KSIQSVLYESRMKNSVA | WASTRES | QQYHRLPLS | Ctrl | 20 nM | 6/6 |
| KFSQSVLYESRASNRVA | NASTRES | QQYHRLPLS | GP_HC | 3.5 nM | 6/6 |
| KSSQSCLYESKNKNSVA | SASTRES | QQYHRLPLS | Ctrl | 900 pM | 6/6 |
| IVSQLMLWGYHMKNSIA | EAEMRLN | QQYERLPLF | En_Gen | nd | 0/6 |
| MISQVMNTLTRHGNNVA | DLEERES | QQYFRLPLS | En_Gen | 8.3 nM | 4/6 |
| KISQQVLYESRNKNSVA | DASTRES | QQYHRLPLS | Ctrl+GP_Gen | 720 pM | 12/12 |
| KMSQEVWLESRNVNSVA | MASCRCD | QQYHRLPLS | GP_Gibbs | 60 nM | 6/6 |
| KYSMSELGEQRNANSVA | NASTREE | QQYHRLPLS | GP_Gibbs | 2.6 nM | 6/6 |

For reference, 7 entries of the list once more:

| CDR-L1 | CDR-L2 | CDR-L3 | group | apparent Kd | seen in |
|---|---|---|---|---|---|
| KSSQSVLYESRNKNSVA | WASTRES | QQYHRLPLM | Ctrl | 350 nM | 1/6 |
| SLEPFEQQIMKDLNNIA | NTQVRAN | QQYMRLPFM | En_Gibbs | 780 pM | 6/6 |
| NLGGEDAQDTRGMAAVA | DVSEVGE | QHYNRLPLS | En_Gibbs | 59 nM | 5/6 |
| IVSQLMLWGYHMKNSIA | EAEMRLN | QQYERLPLF | En_Gen | nd | 0/6 |
| MISQVMNTLTRHGNNVA | DLEERES | QQYFRLPLS | En_Gen | 8.3 nM | 4/6 |
| TISMSMNWLTRNKNNIA | EESTRED | QQYDRLPLS | En_HC | 13 nM | 5/6 |
| KVSQSRLYESRNKNSVA | NASQRES | QQYHRLPLS | GP_Gen | 2.0 nM | 6/6 |